Data published in patent US6943268B2 (priority 1999, dated 2005).

Tests used:
[1] = tested on: L-selectin on neutrophils; test: Snezna L-selectin shedding assay, isolated neutrophils (FACScan); assay type: cell-based, human; settings: for approximate concentration for 100% LOSS of L-selectin from cell surface: neutrophils, 10 min at 37 deg.
[2] = tested on: L-selectin on lymphocytes; test: L-selectin shedding assay, isolated lymphocytes (FACScan); assay type: cell-based, human; settings: within 20 min
[3] = tested on: Mac-1 (CD18/CD11b) on neutrophils; test: Cell activation check: cell surface Mac-1 expression on neutrophils; assay type: cell-based, human; settings: 100 nM PAO
[4] = Solubility in aqueous media; settings: at the low concentrations needed for administration
[5] = tested on: L-selectin on neutrophils in whole blood; test: Whole blood measurement of L-selectin shedding
[6] = tested on: other cell surface molecules known to undergo proteolytic cleavage; test: Phenotypic analysis of other cell surface molecules on neutrophils; settings: 100 nM PAO

## O=S(=O)(O)CC1CS[As](c2ccccc2)S1 (stereo not shown)
[1]
  induction of L-selectin shedding (in words): shown to induce L-selectin shedding

## O=[As]c1ccccc1 (stereo not shown)
[1]
  induction of L-selectin shedding (in words): induces L-selectin shedding from neutrophils in a dose dependent manner
  approximate concentration for 100% LOSS of L-selectin from cell surface: −1 uM-
[1]; within 10 min
  concentration at which neutrophils shed most of their L-selectin: 1 µM
[2]
  concentration required for lymphocytes to shed their L-selectin: 5 µM
[3]
  Mac-1 upregulation: does not appreciably upregulate Mac-1
[4]
  solubility in aqueous media: soluble in most aqueous media
[5]; 1 μM PAO, whole human blood, about 20 min
  L-selectin shedding from neutrophils: 50%
[5]; 10 uM PAO, whole blood, within about 20 min, 'should induce'
  L-selectin shedding from neutrophils: complete shedding
[5]; whole blood
  concentration required to obtain about the same results as 1 uM PAO: 10 µM
[6]
  shedding of other cell surface molecules known to undergo proteolytic cleavage: does not appreciably upregulate Mac-1 or induce the shedding of other cell surface molecules

## Mersalyl acid
[1]
  approximate concentration for 100% LOSS of L-selectin from cell surface: 500 uM-

## Quaternary bromobimane
[1]
  approximate concentration for 100% LOSS of L-selectin from cell surface: 300 uM-
